# Reference: patent US9765358B2 (priority 2015, dated 2017)
# Tested on: chimera C-1
# Assay: Antibiotic disc susceptibility test
# Conditions: same discs and plates, anaerobic, 48 hours, 37° C.
compound,measurement,value
Cc1ncc([N+](=O)[O-])n1CCO [metronidazole],"antibiotic susceptibility (disc, zone of clearance)",resistance
